SMILES strings stand for the structures. This is a selection; strong and weak results do not stand in their true shares. Active and inactive are the calls of the source. Cut-off read from the data, not from the text of the source: active = inhibition above about 22% (passing the limit was not always enough); inactive = the rest.

By UniProt entry, the sequences of proteins in these tests, tags left out.
UniProt P35372, whole entry, looked up: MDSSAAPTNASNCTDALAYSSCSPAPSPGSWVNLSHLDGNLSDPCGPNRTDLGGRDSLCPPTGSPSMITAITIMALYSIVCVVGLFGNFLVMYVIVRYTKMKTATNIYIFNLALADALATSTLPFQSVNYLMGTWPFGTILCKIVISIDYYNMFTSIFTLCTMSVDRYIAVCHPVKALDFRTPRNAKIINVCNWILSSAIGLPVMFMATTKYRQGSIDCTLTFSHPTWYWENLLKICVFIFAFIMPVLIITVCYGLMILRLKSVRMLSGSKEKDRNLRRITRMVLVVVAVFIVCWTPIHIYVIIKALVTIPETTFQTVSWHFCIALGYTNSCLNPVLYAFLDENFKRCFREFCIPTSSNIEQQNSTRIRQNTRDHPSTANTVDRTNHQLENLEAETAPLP
UniProt P41143, whole entry, looked up: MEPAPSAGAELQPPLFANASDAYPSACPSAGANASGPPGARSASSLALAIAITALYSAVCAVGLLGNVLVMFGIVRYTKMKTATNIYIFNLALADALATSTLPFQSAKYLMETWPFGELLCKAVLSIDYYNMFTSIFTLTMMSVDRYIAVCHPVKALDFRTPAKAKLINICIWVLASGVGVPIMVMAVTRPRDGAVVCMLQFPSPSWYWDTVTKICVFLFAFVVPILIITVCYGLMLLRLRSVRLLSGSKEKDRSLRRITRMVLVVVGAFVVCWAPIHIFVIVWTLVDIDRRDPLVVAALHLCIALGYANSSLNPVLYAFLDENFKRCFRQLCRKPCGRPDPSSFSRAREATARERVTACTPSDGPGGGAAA

The target of the test is Mu-type opioid receptor (Homo sapiens) + Delta-type opioid receptor (Homo sapiens) (UniProt P35372+P41143). The test can be described thus: OPRM1-OPRD1 heterodimer inverse agonism – cell-based, luminescence, primary screen (AID 504357).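 Note: 0% = cells with DMSO and 100% = wells without cells with DMSO.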 The conditions noted are these: cell-based MOR-DOR heterodimer luminescence, at 9.3 µM, stronger effect = higher value.
`CC(C)(C)NC(=O)Cn1c(-c2nonc2N)nc2ccccc21`: the inhibition is inactive: 9.8%. Turning to `CCc1ccc(NC(=O)Cn2c3[n+](c4c(F)c(F)ccc42)CCCCC3)cc1`, the inhibition is inactive: 13.8%. Consider `CC(C(=O)Nc1ccccc1C(=O)O)n1c(C(F)(F)F)nc2ccccc21` (centres undefined), for which the inhibition is inactive: 10.6%. Under `Cn1c(=O)c2ncn(CC(=O)NCCOc3ccccc3)c2n(C)c1=O` stands inactive: 13.9%; under `C[C@H](NC(=O)N1CCn2c1nc1ccccc12)C(=O)NCC1CCCO1` (some centres undefined), inactive: 17.4%; under `CCC(=O)Nc1ccc(NC(=S)NC(=O)/C=C/c2ccco2)cc1`, inactive: 11.8%.

In the case of `CCN(CC)CCn1cnc2c1c(=O)[nH]c(=O)n2Cc1ccccc1`, the inhibition is inactive: 7.81%. Under `Cc1ccc(S(=O)(=O)c2nnn3c2nc(NC2CCN(Cc4ccccc4)CC2)c2ccccc23)cc1C` stands inactive: -121%.

Consider `CN1CCC(N(C)c2nc(-c3ccccc3)nc3ccccc23)CC1`, for which the inhibition is inactive: -41.9%. To `Cn1cccc1/C=N/NC(=O)Cn1cnc2ccccc21` belongs inactive: 8.24%.

For the compound `CN1CCN(C(=O)Cn2c(C(F)(F)F)nc3ccccc32)CC1`, the inhibition was inactive: 1.13%. Under `c1ccc(Cn2c(CNc3nc4ccccc4n3CCN3CCCCC3)nc3ccccc32)cc1` stands inactive: -41.7%; under `O=C(OC1CN2CCC1CC2)c1ccc(Cl)cc1` (centres undefined), inactive: 7.98%. To `O=C(c1ccccc1)N1CCn2c1nc1ccccc12` belongs inactive: 10.1%; to `CC(C(=O)N1CCc2ccccc21)n1cnc2c1c(=O)n(C)c(=O)n2C` (centres undefined), inactive: -9.28%; to `C(=N\c1nc2ccccc2n1CCN1CCOCC1)/c1cccs1`, inactive: 4.94%. In the case of `Cn1c(=O)c2c(ncn2CC(=O)Nc2cccc(S(=O)(=O)Nc3ccccc3F)c2)n(C)c1=O`, the inhibition was inactive: 15.5%.

In the case of `CS(=O)(=O)c1ccc(Cl)c(NC(=O)COC(=O)C(O)(c2ccccc2)c2ccccc2)c1`, the inhibition was inactive: 1.67%.

For the compound `COCCCNC(=O)Cn1cnc2c(NCc3ccccc3)ncnc21`, the inhibition was inactive: 9.71%. To `Cn1c(=O)c2c(ncn2CC(=O)N2CCCCCC2)n(C)c1=O` belongs inactive: 7.52%. As to `O=C(Cn1cnc2ccccc21)N/N=C/c1cccnc1`, the inhibition is inactive: 14%. Under `CN(C)C(=O)Cn1c(=O)n(C)c2ccccc21` stands inactive: 3.41%. Under `O=[As](O)(O)c1cccnc1` stands inactive: 9.39%. Consider `OCCNc1nc2ccccc2n1CCN1CCCCC1`, for which the inhibition was inactive: 18%.

For `Cc1nc2ccccc2n1CC(=O)NCCN1CCOCC1`, the inhibition was inactive: 8.14%. Under `CC(C)C(NS(=O)(=O)c1cccc2nsnc12)C(=O)N1CCn2c1nc1ccccc12` (centres undefined) stands inactive: 18.2%; under `CCC(C)N(C(=O)Cn1cnc2c1c(=O)n(C)c(=O)n2C)C1CCS(=O)(=O)C1` (centres undefined), inactive: 0.69%; under `Cc1nc2cc(C(F)(F)F)ccc2n1CCNc1nc(-c2ccc([N+](=O)[O-])c(Cl)c2)cs1`, inactive: -26.9%. Turning to `O=C(Nc1ccccc1)N1CCn2c(nc3ccccc32)C1`, the inhibition is inactive: 11.6%. Under `O=C(Nc1ccc2c(c1)nc1n2CCN(C2CCCCC2)C1)c1ccco1` stands inactive: -6.89%. Under `O=C(CSc1nc2ccccc2n1CC(=O)N1CCCC1)Nc1ccc2c(c1)OCO2` stands inactive: -6.22%; under `COc1cccc(CNc2nc3ccccc3n2CCN2CCCCC2)c1`, inactive: 0.41%. As to `CCOP(=O)(Nc1cccc2ccccc12)OCC`, the inhibition is inactive: -2.43%. In the case of `CCOC(=O)CC[C@H](NC(=O)Cn1cnc2c(OCc3ccccc3)ncnc21)C(=O)OCC`, the inhibition was inactive: 9.25%. To `COc1ccc(CNC(=O)[C@H](C)NC(=O)N2CCn3c2nc2ccccc23)cc1` belongs inactive: 12.2%; to `COc1cccc(CNC(=O)[C@H](CC(C)C)NC(=O)N2CCn3c2nc2ccccc23)c1`, inactive: 0.23%; to `CCN(CC)CCn1c(NC(=O)c2ccc(Cl)cc2)nc2ccccc21`, inactive: -31.1%. For `Cn1c(=O)n(CC(N)=O)c2ccccc21`, the inhibition was inactive: 5.58%. To `COc1cc(C2NCCC3(OCCO3)C2(C)C)cc(OC)c1OC` (centres undefined) belongs inactive: -3.4%; to `CC(=O)Nc1ccc2c(c1)nc1n2CCN(C2CCCCC2)C1`, inactive: 7.1%; to `O=C(Cn1c(S(=O)(=O)Cc2ccccc2)nc2ccccc21)N1CCCCC1`, inactive: 0.1%.

In the case of `COCCN1CCn2c(nc3cc(NC(=O)c4cccs4)ccc32)C1`, the inhibition was inactive: 2.05%. Regarding `O=C(Cn1c(-c2ccccn2)nc2ccccc21)N/N=C/c1ccccn1`, the inhibition is inactive: -13%. To `O=C(CCCCCNC(=O)N1CCn2c1nc1ccccc12)NCc1ccccc1Cl` belongs inactive: 14.9%; to `O=C(Cn1c(NCCO)nc2ccccc21)NCC1CCCO1` (centres undefined), inactive: 4.43%; to `Cc1ccc2c(c1)C1CN(C)CCC1N2S(=O)(=O)c1cc(C(F)(F)F)ccc1Cl` (centres undefined), inactive: -3.91%.

`CCCC(=O)Nc1nnc(/C=C/c2ccc(OC)cc2)s1`: the inhibition is inactive: 10.5%.

In the case of `CC(C)[C@H](NC(=O)N1CCn2c1nc1ccccc12)C(=O)N[C@@H](C(=O)O)c1ccccc1`, the inhibition is inactive: 13.2%. Under `O=C(Cn1cnc2c(NCc3ccccc3)ncnc21)NCc1ccccn1` stands inactive: 14.1%. To `O=C(Cn1cnc2c(NCc3ccccc3)ncnc21)NCC1CCCO1` (centres undefined) belongs inactive: 11.8%. For the compound `CC1CCC2C(=O)N(c3ccc(NC4CCN(Cc5ccccc5)CC4)c([N+](=O)[O-])c3)C(=O)C2C1` (centres undefined), the inhibition was inactive: -4.16%.

As for `c1ccc2c(c1)nc1n2CCN1`, the inhibition was inactive: 12%. As to `Cc1ccc2c(c1)C1CN(C)CCC1N2C(=S)Nc1ccc(OC(F)F)cc1` (centres undefined), the inhibition was inactive: 3.03%. Consider `CC(=O)Nc1nc2ccccc2n1CCN(C)C`, for which the inhibition is inactive: 9.89%. Under `COc1ccc(CNC(=O)Cn2cnc3c(OCc4ccccc4)ncnc32)cc1` stands inactive: 6.6%; under `O=C(Cn1c(C(F)(F)F)nc2ccccc21)Nc1ccccc1N1CCOCC1`, inactive: -4.37%; under `Nc1cccc2c([As](=O)(O)O)cccc12`, inactive: -3.11%.

For `O=C(Cn1c(CO)nc2ccccc21)NCCc1ccccc1`, the inhibition was inactive: 6.81%. Under `Cc1ccc(NCCc2c([N+](=O)[O-])cc([N+](=O)[O-])cc2[N+](=O)[O-])cc1` stands inactive: -36.7%; under `Oc1ccc(CC2(N3CCCC3)CCCCC2)cc1`, inactive: -1.82%; under `Cc1ccc2c(c1)C1CN(C)CCC1N2C(=O)c1ccccc1NS(=O)(=O)c1cccc(C(F)(F)F)c1` (centres undefined), inactive: -6.98%. To `O=C(Nc1nc2ccccc2n1CCN1CCOCC1)c1ccccc1` belongs inactive: 17.7%; to `NNC(=O)Cn1cnc2ccccc21`, inactive: -5.87%; to `CSCC[C@H](NC(=O)N1CCn2c1nc1ccccc12)C(=O)N1CCCCC1`, inactive: 14%. Under `C[C@H](NC(=O)N1CCn2c1nc1ccccc12)C(=O)NCc1ccc(F)cc1` stands inactive: 10.3%; under `Cn1c(=O)n(CCc2ccccc2)c(=O)c2c1nc1n2CCN1Cc1ccco1`, inactive: 17.1%; under `CCN(CC)CCCNC(=S)N1CCn2c(nc3ccccc32)C1`, inactive: 13.4%. In the case of `O=C(CSc1nc2ccccc2n1CC(=O)N1CCOCC1)N1CCCC1`, the inhibition is inactive: 15.7%. Under `CCCOP(=S)(Nc1nc(N)cc(=O)[nH]1)OCCC` stands inactive: 6.22%.

Usually inhibition stands for the relative decrease from the control value, in per cent.

These data come from PubChem BioAssay AID504357 (The Scripps Research Institute Molecular Screening Center, 2011).
